The values below come from PMC3466219 (PLoS ONE, 2012).

Sequences of proteins named here, by UniProt entry; tags and fusion partners are left off. Residues count along the entry.
UniProt Q09472, 1287-1663 limits assumed: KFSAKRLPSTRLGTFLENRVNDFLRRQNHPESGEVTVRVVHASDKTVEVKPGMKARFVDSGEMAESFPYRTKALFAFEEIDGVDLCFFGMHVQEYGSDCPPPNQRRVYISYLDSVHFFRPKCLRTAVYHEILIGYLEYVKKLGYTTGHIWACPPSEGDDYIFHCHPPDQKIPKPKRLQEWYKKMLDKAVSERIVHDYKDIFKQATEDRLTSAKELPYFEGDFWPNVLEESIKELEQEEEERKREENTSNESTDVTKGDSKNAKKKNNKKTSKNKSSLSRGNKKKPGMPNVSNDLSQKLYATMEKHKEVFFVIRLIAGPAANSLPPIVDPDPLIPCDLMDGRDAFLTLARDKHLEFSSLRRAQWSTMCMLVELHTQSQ
UniProt Q92831, whole entry, species assumed: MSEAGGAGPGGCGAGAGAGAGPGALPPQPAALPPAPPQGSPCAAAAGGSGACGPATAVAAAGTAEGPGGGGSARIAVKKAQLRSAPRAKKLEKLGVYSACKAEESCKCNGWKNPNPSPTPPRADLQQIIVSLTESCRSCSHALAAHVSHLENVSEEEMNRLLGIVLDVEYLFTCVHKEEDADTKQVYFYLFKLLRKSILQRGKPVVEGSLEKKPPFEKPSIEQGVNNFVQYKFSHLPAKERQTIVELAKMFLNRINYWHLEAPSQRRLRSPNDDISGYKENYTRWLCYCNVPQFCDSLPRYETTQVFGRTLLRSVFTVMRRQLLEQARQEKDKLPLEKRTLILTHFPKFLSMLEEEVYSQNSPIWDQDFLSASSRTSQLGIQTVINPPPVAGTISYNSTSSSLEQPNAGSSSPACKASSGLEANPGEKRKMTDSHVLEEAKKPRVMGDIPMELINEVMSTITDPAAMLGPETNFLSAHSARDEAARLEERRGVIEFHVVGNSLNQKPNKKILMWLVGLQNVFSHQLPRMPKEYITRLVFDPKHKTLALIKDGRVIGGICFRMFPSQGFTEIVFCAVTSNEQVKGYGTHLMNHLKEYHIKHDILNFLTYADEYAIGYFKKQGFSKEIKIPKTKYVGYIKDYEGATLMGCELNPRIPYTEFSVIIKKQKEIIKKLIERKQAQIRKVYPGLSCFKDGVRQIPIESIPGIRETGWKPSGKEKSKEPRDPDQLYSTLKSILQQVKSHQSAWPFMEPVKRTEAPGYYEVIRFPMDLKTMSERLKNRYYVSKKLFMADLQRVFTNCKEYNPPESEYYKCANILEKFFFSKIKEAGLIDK
UniProt Q92993, whole entry: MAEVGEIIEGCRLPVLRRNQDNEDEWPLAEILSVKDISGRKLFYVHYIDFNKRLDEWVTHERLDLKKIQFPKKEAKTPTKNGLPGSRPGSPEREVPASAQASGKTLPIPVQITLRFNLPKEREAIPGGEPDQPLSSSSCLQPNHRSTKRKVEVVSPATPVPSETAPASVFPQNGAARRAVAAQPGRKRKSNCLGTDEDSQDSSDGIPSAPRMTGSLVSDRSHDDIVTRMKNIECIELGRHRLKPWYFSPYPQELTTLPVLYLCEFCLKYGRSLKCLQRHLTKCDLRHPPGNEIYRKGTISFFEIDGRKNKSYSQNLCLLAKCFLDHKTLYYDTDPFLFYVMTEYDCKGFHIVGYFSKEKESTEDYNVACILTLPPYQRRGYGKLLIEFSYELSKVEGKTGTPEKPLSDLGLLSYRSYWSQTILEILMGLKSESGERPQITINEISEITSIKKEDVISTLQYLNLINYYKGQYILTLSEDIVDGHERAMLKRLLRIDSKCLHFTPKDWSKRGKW
UniProt Q92830, whole entry, species assumed: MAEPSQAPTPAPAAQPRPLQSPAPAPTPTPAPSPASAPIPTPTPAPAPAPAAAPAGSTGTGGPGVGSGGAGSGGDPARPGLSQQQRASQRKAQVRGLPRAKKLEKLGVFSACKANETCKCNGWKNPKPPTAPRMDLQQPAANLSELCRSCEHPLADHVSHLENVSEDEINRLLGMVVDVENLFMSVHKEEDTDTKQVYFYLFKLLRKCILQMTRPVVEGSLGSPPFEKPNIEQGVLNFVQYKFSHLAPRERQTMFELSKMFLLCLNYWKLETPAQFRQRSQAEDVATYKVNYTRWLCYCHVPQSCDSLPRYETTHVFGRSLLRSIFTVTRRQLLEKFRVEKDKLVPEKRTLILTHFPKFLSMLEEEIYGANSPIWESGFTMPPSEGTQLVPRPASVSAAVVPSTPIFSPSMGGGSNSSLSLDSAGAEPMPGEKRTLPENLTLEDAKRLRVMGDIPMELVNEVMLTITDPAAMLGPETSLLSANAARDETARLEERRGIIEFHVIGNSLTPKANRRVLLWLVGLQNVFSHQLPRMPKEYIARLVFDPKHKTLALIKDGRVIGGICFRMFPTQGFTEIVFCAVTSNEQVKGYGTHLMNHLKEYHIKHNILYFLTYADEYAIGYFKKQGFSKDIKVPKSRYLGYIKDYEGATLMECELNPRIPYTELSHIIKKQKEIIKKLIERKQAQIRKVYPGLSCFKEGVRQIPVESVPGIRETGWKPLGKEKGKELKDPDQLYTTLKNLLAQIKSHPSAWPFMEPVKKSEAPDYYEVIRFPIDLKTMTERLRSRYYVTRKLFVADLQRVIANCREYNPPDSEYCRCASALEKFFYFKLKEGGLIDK

Molecules are shown by their SMILES. Several values for one entry are separate records, joined by “and”; a condition that tells them apart may be missing. Equal values may be shown once.

For one assay, the target named is p300 (Homo sapiens, UniProt Q09472). Kind of assay: In vitro HAT assay, p300. The format is biochemical.
Assay [1] concerns panel of prostate cancer cell lines. Description: cells. To be noted: read-out: 50% growth inhibition.
The target of the next assay is T1, PCAF (Homo sapiens, UniProt Q92831).
T1 construct: GST; made in house; host or cells: XA90 Escherichia coli
Description: In vitro HAT assay, PCAF. Type of assay: biochemical.

The subject of assay [2] is LNCaP cells.
For the next assay, the system named is PC3 cells. Kind of assay: cells. The settings on record: Homo sapiens, PC-3, 72 h.
Another assay concerns the target Tip60 (Homo sapiens, UniProt Q92993). Kind of assay: In vitro HAT assay, Tip60.
A further assay addresses GCN5 (Homo sapiens, UniProt Q92830). Kind of assay: In vitro HAT assay, GCN5. The format is biochemical.
In assay [3] the test system is γH2AX in LNCaP-CdxR cells.
Assay [4] concerns pATM and Tip60 levels in LNCaP cells.
In assay [5] the test system is LNCaP-AI cells. Description: cells. To be noted: 72 h.
In another assay the test system is LNCaP-CdxR. Description: cells. To be noted: 72 h.
The subject of assay [6] is LNCaP-AI cells.
In assay [7] the test system is caspase 3 and caspase 9 in LNCaP cells.
In assay [8] the test system is LNCaP cells. The source holds these as a separate data set.
In assay [9] the test system is Tip60 levels in LNCaP cells. The format is cell-based.
Assay [10] deals with acetylated histone H4K16, H3K14 and H4K8 in LNCaP cells. Kind of assay: Western blotting of histone acetylation in LNCaP cells.
The subject of another assay is CWR22rv1. Description: cells. The settings on record: CWR22Rv1, 72 h.

Regarding `c1cc(SSc2ccns2)sn1` [NU9056, 1,2-Bis(isothiazol-5-yl)disulfane], the “γH2AX foci after IR” value in the assay on γH2AX in LNCaP cells is given as “significantly higher”. Moreover, the IC50 is 60 µM and 58 µM against p300; 8 to 27 µM in [1]; 30 µM and 36 µM on PCAF; < 2 µM and 2 µM on Tip60 (HAT IC50 Tip60); < 2 µM and 2 µM at Tip60 (Tip60 IC50); > 100 µM on GCN5. Moreover, the “G1 or G2M cell cycle arrest” value in the assay with LNCaP cells [2] was “only accumulation in the sub-G1 phase was seen”. In addition, the “sub-G1 population (induction of apoptosis)” value with LNCaP cells [2] is “induction of apoptosis in a time- and concentration-dependent manner”. Also, the GI50 in the assay on PC3 cells came to 27 µM; in the assay on LNCaP-AI cells [5] it was 16 µM; with LNCaP-CdxR, 12 µM; in the assay on CWR22rv1 it was 7.5 µM. Further, the “γH2AX after IR” value in assay [3] is “significant difference”. Also, the “Tip60 accumulation after IR” value in [4] is on record as “did not demonstrate Tip60 accumulation”. For the same compound, in assay [4], the “pATM levels after IR” value is given as “decrease was much faster”. Further, the figures for the “Sub-G1 population compared to LNCaP cells” value with LNCaP-CdxR cells and in the assay on LNCaP-AI cells [6] were “not statistically significant” and “significant increase”, respectively. Besides, the “γH2AX formation after IR” value with γH2AX foci in 293T cells was “still clearly enriched”. Moreover, the “caspase 3 and caspase 9 activation” value in [7] was “both caspase 3 and caspase 9 activation in a time- and concentration-dependent manner”. Further, the colony forming ability entry in the assay on LNCaP cells [8] was “reduced”. In addition, the Tip60 levels result in [9] is “unaffected”. Besides, the “levels of acetylated histone H4K16, H3K14 and H4K8” value in [10] was “decreased levels”.
